Experimental data reported in publication PMC6946680, “Modulation of brain cation-Cl^− cotransport via the SPAK kinase inhibitor ZT-1a” (Nature Communications, 2020).

Target: human SPAK 452-547(C-term) with WNK peptide (RFQV) (Homo sapiens, UniProt Q9UEW8)
Assay: Fluorescence polarization of SPAK–WNK peptide interaction
Format: binding
Settings: read-out: IC50, decrease in fluorescence polarization (SPAK–WNK peptide); 10 nM Lumino-Green WNK peptide

IC50: 2510 nM
SMILES: CCN1/C(=C\C2=CC(=C/C=C/c3sc4ccccc4[n+]3CC)/CC(C)C2)Sc2ccccc21 (stereo not shown)
